{
  "sequences": {"note": "Amino acid sequences for entries named in this document (tags omitted).", "UniProt Q6GQQ9, whole entry": "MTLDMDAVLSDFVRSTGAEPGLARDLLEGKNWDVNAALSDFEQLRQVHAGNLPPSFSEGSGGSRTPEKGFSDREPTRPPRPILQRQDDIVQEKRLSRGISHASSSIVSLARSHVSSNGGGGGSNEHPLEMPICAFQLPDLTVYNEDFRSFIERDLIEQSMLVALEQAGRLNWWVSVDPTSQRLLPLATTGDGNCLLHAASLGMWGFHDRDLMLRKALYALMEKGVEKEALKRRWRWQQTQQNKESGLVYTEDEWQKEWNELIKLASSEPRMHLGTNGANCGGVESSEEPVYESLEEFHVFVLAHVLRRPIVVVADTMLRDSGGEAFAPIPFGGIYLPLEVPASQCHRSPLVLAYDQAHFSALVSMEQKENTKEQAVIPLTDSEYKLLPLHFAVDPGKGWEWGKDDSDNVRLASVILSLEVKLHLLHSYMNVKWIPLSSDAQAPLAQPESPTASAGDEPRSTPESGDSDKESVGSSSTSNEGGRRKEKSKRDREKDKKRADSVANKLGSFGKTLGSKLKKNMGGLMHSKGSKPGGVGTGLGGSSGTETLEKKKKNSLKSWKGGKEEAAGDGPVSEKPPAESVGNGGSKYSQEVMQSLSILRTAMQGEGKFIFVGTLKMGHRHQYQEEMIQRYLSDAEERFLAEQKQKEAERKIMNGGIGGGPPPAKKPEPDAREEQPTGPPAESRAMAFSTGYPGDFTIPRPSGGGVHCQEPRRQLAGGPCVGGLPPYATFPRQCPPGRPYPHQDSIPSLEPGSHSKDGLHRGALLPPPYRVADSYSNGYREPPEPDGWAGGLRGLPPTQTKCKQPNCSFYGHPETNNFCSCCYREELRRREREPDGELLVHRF"},
  "source": "patent US10590075B2",
  "about": "“Cyanopyrrolidine derivatives as inhibitors for DUBs” (Mission Therapeutics Limited, priority 2015, dated 2020)",
  "molecular_target": "Cezanne 1 (Homo sapiens (Human), UniProt Q6GQQ9)",
  "test": "Cezanne 1 biochemical IC50 assay",
  "conditions": "read-out: IC50 range; FLAG-Cezanne 1 purified from HEK293T cells; fluorescence polarisation, TAMRA labelled peptide linked to ubiquitin; 30 min preincubation, 2 hr read",
  "method": "The Cezanne 1 construct was PCR amplified and cloned into a pFLAG-CMV-6c vector (Sigma-Aldrich) with an N-terminal FLAG tag. HEK293T cells were transfected with FLAG-Cezanne 1 using TransIT-LT1 transfection reagent (Mirus) according to the manufacturer's instructions. Cells were harvested 48 hours after transfection. […]\nDilution plates were prepared at 21 times the final concentration (2100 μM for a final concentration of 100 μM) in 50% DMSO in a 96-well polypropylene V-bottom plate (Greiner #651201). […] Reactions were initiated by the addition of 50 nM of TAMRA labelled peptide linked to ubiquitin via an iso-peptide bond as fluorescence polarisation substrate. Reactions were read immediately after addition of substrate and following a 2 hr incubation at room temperature. Readings were performed on a Pherastar Plus (BMG Labtech). λ Excitation 540 nm; λ Emission 590 nm.",
  "data": [
    {"smiles": "N#CN1CC[C@](F)(C(=O)Nc2ncc(-c3cccc4cn[nH]c34)s2)C1", "values": [
      {"measurement": "IC50", "value": "100 to 1000", "unit": "nM"}
    ]}
  ]
}
